Laboratory results reported in patent publication US20260384422A1, “CRYSTALLINE FORMS OF A BIARYL YAP/TAZ-TEAD PROTEIN-PROTEIN INTERACTION INHIBITOR” (published 2026).

What was measured:
[1] = Glass transition by DSC after heating and cooling
[2] = DVS isotherm / humidity exposure (hygroscopicity, XRPD after humidity); settings: for DVS mass change, desorption / DVS mass change, sorption: 25 °C; for XRPD after DVS: after DVS at 25 °C, 2 cycles 40-0-95-0-40% RH
[3] = Stability Study (degradation products, color, XRPD after stress); settings: for Color (remark on solid in words): pH 9.0 borate buffer 50 mM
Loss on drying by TGA = settings: for Loss on drying / Loss on drying after 1 day at 92% RH: heating rate 10 K/min
[4] = Comparison of the properties of IAG933 succinate salt and free form Modification A; settings: statement in words
Crystal morphology (SEM) = settings: SEM image, FIG. 2
[5] = 0.1% solution or suspension, 1 week 80 °C, pH 3.0 citrate buffer 50 mM (pH 3.10 free form; pH 3.56 salt)
[6] = 0.1% solution or suspension, 1 week 80 °C, pH 4.7 acetate buffer 50 mM (pH 4.83 free form; pH 4.93 salt)
[7] = 0.1% solution or suspension, 1 week 80 °C, pH 6.8 phosphate buffer 50 mM (pH 6.88 free form; pH 6.46 salt)
[8] = 0.1% solution or suspension, 1 week 80 °C
[9] = 0.1% solution or suspension, 1 week 80 °C, pH 9.0 borate buffer 50 mM (pH 8.99 free form; 7.51 salt)
[10] = 0.1% solution or suspension, 1 week 80 °C, water (final pH 8.99 free form; 5.10 salt)
[11] = Xenon light (1200 kLuxh), bulk amber vial (HPLC)
[12] = Xenon light (1200 kLuxh), bulk clear vial (HPLC)
[13] = second Bulk (HPLC) line under heading solid state, 2 week 50 °C / 11% RH, open (own condition not given)
[14] = second Bulk (XRPD) line under heading solid state, 2 week 50 °C / 11% RH, open (own condition not given)
[15] = solid state, 2 week 80 °C / 11% RH, open
[16] = solid state, 2 week 80 °C / 11% RH, open, bulk (HPLC)
[17] = solid state, 2 week 80 °C / 75% RH, open
[18] = solid state, 2 week 80 °C / 75% RH, open, bulk (HPLC)

CNC(=O)c1cnc(OCCO)c(F)c1-c1c(Cl)c(F)cc2c1C[C@](c1ccccc1)([C@@H]1CCCN1)O2
Tg (glass transition) [1]: 95.6 °C
DVS mass change, desorption ([2]; 0% RH): −0.01%
DVS mass change, sorption ([2]; 0% RH): 0.00%
DVS mass change, desorption ([2]; 10% RH): 0.16%
DVS mass change, sorption ([2]; 10% RH): 0.11%
DVS mass change, desorption ([2]; 20% RH): 0.28%
DVS mass change, sorption ([2]; 20% RH): 0.19%
DVS mass change, desorption ([2]; 30% RH): 0.38%
DVS mass change, sorption ([2]; 30% RH): 0.26%
DVS mass change, desorption ([2]; 40% RH): 0.48%
DVS mass change, sorption ([2]; 40% RH): 0.33%
DVS mass change, desorption ([2]; 50% RH): 0.62%
DVS mass change, sorption ([2]; 50% RH): 0.41%
DVS mass change, desorption ([2]; 60% RH): 0.72%
DVS mass change, sorption ([2]; 60% RH): 0.51%
DVS mass change, desorption ([2]; 70% RH): 0.81%
DVS mass change, sorption ([2]; 70% RH): 0.62%
DVS mass change, desorption ([2]; 80% RH): 0.90%
DVS mass change, sorption ([2]; 80% RH): 0.75%
DVS mass change, desorption ([2]; 90% RH): 1.00%
DVS mass change, sorption ([2]; 90% RH): 0.92%
DVS mass change, desorption ([2]; 95% RH): 1.04%
DVS mass change, sorption ([2]; 95% RH): 1.05%
XRPD after 1 day at 92% RH: crystallinity or form [2]: No change
XRPD after DVS [2]: No change
Degradation Products ([3]; 0.1% solution or suspension, 1 week 70 °C, acetonitrile): 0.8%
Degradation Products ([3]; 0.1% solution or suspension, 1 week 70 °C, ethanol): 1.7%
Degradation Products [3, 5]: 1.4%
Degradation Products [3, 6]: 1.0%
Degradation Products [3, 7]: 1.9%
Color (remark on solid in words) [3, 8]: (solid on the wall)
Degradation Products [3, 9]: 5.7%
Degradation Products [3, 10]: 4.6%
Bulk amber vial (XRPD) ([3]; Xenon light (1200 kLuxh)): No change
Bulk clear vial (XRPD) ([3]; Xenon light (1200 kLuxh)): No change
Degradation Products [3, 11]: 1.0%
Degradation Products [3, 12]: 4.1%
Degradation Products ([3]; initial): 0.7%
Degradation Products [3, 13]: 1.3%
Bulk (XRPD) [3, 14]: No change
Bulk (XRPD) [3, 15]: No change
Degradation Products [3, 16]: 1.4%
Bulk (XRPD) [3, 17]: Gel
Color (appearance in words) [3, 17]: gel
Degradation Products [3, 18]: 12.6%
Loss on drying (Loss on drying by TGA; at 110 °C): 0.4%
Loss on drying after 1 day at 92% RH (Loss on drying by TGA; at 110 °C): 1.0%
Loss of drying (LoD) (Loss on drying by TGA; heating rate 10 °C/min, calculated between 27 °C and 110 °C): 0.38%

CNC(=O)c1cnc(OCCO)c(F)c1-c1c(Cl)c(F)cc2c1C[C@](c1ccccc1)([C@@H]1CCCN1)O2.O=C(O)CCC(=O)O
properties compared to IAG933 free form modification A [4]: improved properties with respect to residual solvent content, melting point, hygroscopicity and stability when compared to IAG933 free form modification A
Tg (glass transition) [1]: 96 °C
Δcp (glass transition) [1]: (0.4 J/g/K)
DVS mass change, desorption ([2]; 0% RH): 0.0024%
DVS mass change, sorption ([2]; 0% RH): 0.0007%
DVS mass change, desorption ([2]; 10% RH): 0.0389%
DVS mass change, sorption ([2]; 10% RH): 0.0321%
DVS mass change, desorption ([2]; 20% RH): 0.0847%
DVS mass change, sorption ([2]; 20% RH): 0.0624%
DVS mass change, desorption ([2]; 30% RH): 0.1241%
DVS mass change, sorption ([2]; 30% RH): 0.0920%
DVS mass change, desorption ([2]; 40% RH): 0.1611%
DVS mass change, sorption ([2]; 40% RH): 0.1212%
DVS mass change, desorption ([2]; 50% RH): 0.2081%
DVS mass change, sorption ([2]; 50% RH): 0.1630%
DVS mass change, desorption ([2]; 60% RH): 0.2490%
DVS mass change, sorption ([2]; 60% RH): 0.2076%
DVS mass change, desorption ([2]; 70% RH): 0.3053%
DVS mass change, sorption ([2]; 70% RH): 0.2722%
DVS mass change, desorption ([2]; 80% RH): 0.3892%
DVS mass change, sorption ([2]; 80% RH): 0.3684%
DVS mass change, desorption ([2]; 90% RH): 0.5376%
DVS mass change, sorption ([2]; 90% RH): 0.5302%
DVS mass change, desorption ([2]; 95% RH): 0.7523%
DVS mass change, sorption ([2]; 95% RH): 0.7523%
water uptake ([2]; 95% relative humidity, DVS (dynamic vapor sorption) test): 0.75%
XRPD after 1 day at 92% RH: crystallinity or form [2]: IAG933 1:1 succinate salt (unsolvated)
XRPD after DVS [2]: No change
morphology (Crystal morphology (SEM)): blocky
Degradation Products ([3]; 0.1% solution or suspension, 1 week 50 °C, MeOH): 0.28%
Degradation Products ([3]; 0.1% solution or suspension, 1 week 50 °C, acetone): 3.97%
Degradation Products ([3]; 0.1% solution or suspension, 1 week 50 °C, acetonitrile): 1.95%
Degradation Products ([3]; 0.1% solution or suspension, 1 week 50 °C, ethanol): 0.69%
Degradation Products [3, 5]: 0.84%
Degradation Products [3, 6]: 0.31%
Degradation Products [3, 7]: 0.37%
Color (remark on solid in words) [3, 8]: (amorphous)
Degradation Products [3, 9]: 2.35%
Degradation Products [3, 10]: 0.37%
Bulk amber vial (XRPD) ([3]; Xenon light (1200 kLuxh)): No change
Bulk clear vial (XRPD) ([3]; Xenon light (1200 kLuxh)): No change
Degradation Products [3, 11]: 0.14%
Degradation Products [3, 12]: 3.09%
Degradation Products ([3]; initial): 0.28%
Degradation Products [3, 13]: 0.18%
Bulk (XRPD) [3, 14]: No change
Bulk (XRPD) ([3]; solid state, 2 week 50 °C / 11% RH, open): No change
Degradation Products ([3]; solid state, 2 week 50 °C / 11% RH, open, bulk (HPLC)): 0.22%
Bulk (XRPD) [3, 15]: No change
Degradation Products [3, 16]: 1.22%
Bulk (XRPD) [3, 17]: No change
Degradation Products [3, 18]: 1.34%
Loss on drying (Loss on drying by TGA; at 150 °C): 0.4%
Loss on drying after 1 day at 92% RH (Loss on drying by TGA; at 150 °C): 0.3%
Loss on drying (Loss on drying by TGA; at 150 °C, listed as 1:1 succinate salt of IAG933): 0.4%
